In patent publication US20200319163A1, “METHODS AND COMPOSITIONS OVERCOMING CANCER CELL IMMUNE RESISTANCE” (Georgetown University, priority 2019, published 2020):

Tests used:
ADCCS1 cells = test: Immunofluorescent imaging for directly labeled cetuximab, sensitive cells; type: binding, human; details: FIG. 37
Description: (§1) As previously discussed, ADCCR1 cells express EGFR but are not bound by directly-labeled cetuximab.

A431 cells = details: EGFR-overexpressing A431 cells, NK92-CD16V; previously shown (Murray 2014); cited from earlier work
ADCCR1 cells [1] = test: Immunofluorescent imaging for directly labeled cetuximab, resistant cells; type: binding, human; details: FIG. 37
Description: as §1

ADCCR1 cells [2] = test: Flow cytometry analysis of directly-labeled cetuximab binding; set-up: species or system human; details: FIG. 36
Experimental: A431 cells were cultured for 3 to 6 passages and then were dissociated using 0.25% trypsin, resuspended in DMEM plus 10% FBS and 1% 1-glutamine. Cells (0.5×10^6 to 1×10^6) were aliquoted into Eppendorf tubes, spun at 5,000 rpm for 1 minute at 4° C., washed twice with HBSS (Fisher Scientific; cat. no. SH3058801), and resuspended in 100 μL of FACS buffer (PBS plus 1% BSA). All antibodies used are labeled antibodies, and no blocking step was performed. Labeled antibodies were then added at the manufacturer's recommended concentrations and incubated at 4° C. for 30 minutes, with vortexing at 15 minutes. For intracellular staining, cells were resuspended in 50 μL of BD perm/wash (cat. no. 554723) for 20 minutes before proceeding to staining with antibody at 4° C. for 30 minutes. Cells were then washed with FACS buffer twice and resuspended in FACS buffer or fixative (1% PFA in PBS). Flow antibodies were purchased from BioLegend: EGFR (cat. no. 352904), CD74 (cat. no. 326807), CD54/ICAM (cat. no. 322713), CD142 (cat. no. 365205), CD73 (cat. no. 344021), ITGB4/CD104 (cat. no. 343903), ALCAM/CD166 (cat. no. 343903), CD95/Fas (cat. no. 305611), CD138, (cat. no. 352307), and APC-labeled IgG1 isotype control (cat. no. 400121). CD107a (cat. no. 641581), CD44 (cat. no. 559942), HER2 (cat. no. 340879), and PD-L1 (cat. no. 557929) were purchased from BD Biosciences. […]

[3] = tested on: ADCC resistant cells of the SKOV3 cell line; test: Immunofluorescent imaging for trastuzumab in SKOV3 cell line; type: binding; details: SKOV3 ADCC resistant vs sensitive cells; FIG. 38
ADCCR1 cells [4] = test: ADCC assay (specific lysis by NK92-CD16V effector cells) on ADCC-resistant cells; type: cell-based, human; details: trastuzumab 5 μg/mL, 4 hours, 1:1 E:T; FIG. 2E
Description: Inhibitors of histone acetyltransferase C646 (cat. no. S7152), DNA methyltransferase azacytidine (cat. no. S1782), histone demethylase GSK J4 HCL (cat. no. S7070), and HDAC panobinostat (cat. no. S1030) were purchased from Selleck Chemicals. Inhibitors were solubilized in DMSO at […]. Vehicle treatment (DMSO) was used at the highest equivalent v/v used in inhibitor treatments.
ADCC assays were preformed using A431/ADCCS1/ADCCR1 as target cells and NK92-CD16V cells as the effector cells. Target cells are plated at 10,000 cells/well overnight (A431 cells double overnight).

Substance | detection of directly labeled cetuximab (immunofluorescence) (ADCCS1 cells) | sensitivity to cetuximab-mediated ADCC (A431 cells) | detection of directly labeled cetuximab (immunofluorescence) (ADCCR1 cells [1]) | binding of directly-labeled cetuximab (flow cytometry) (ADCCR1 cells [2]) | trastuzumab binding (immunofluorescence) [3] | ADCC mediated by trastuzumab (specific lysis) (ADCCR1 cells [4])
cetuximab | detected more strongly on cell surface and perinuclearly | sensitive | weakly detected on the cell surface and perinuclearly | not bound | – | –
trastuzumab | – | – | – | – | profound loss of trastuzumab binding | displayed resistance to ADCC
